# Measured properties of organic chemicals

Data: OPERA 2.9 data sets, kmansouri/OPERA on GitHub.

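The OPERA project collected these measurements from public sources as training and test data for property models. The files give a single number for a compound and property, which may rest on several reports. Method, purity and exact conditions of the single measurements are not given. A value may pool stereoisomers or salt forms, and the file does not say which form was measured. Some upstream entries may be estimates or bounds without being marked so.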

Melting points are in °C.
The boiling point refers to atmospheric pressure (760 mmHg), by the definition of the set.
logP is the log10 of the octanol-water partition coefficient; higher is more lipophilic.
Solubility in water is on a log10 molar scale (set defined at 25 °C).
Vapor pressures (log10 mmHg) refer to near room temperature, 15 to 30 °C; higher is more volatile.
The Henry's law constant is on a log10 scale in atm·m3/mol (set defined at 25 °C); higher favours air over water.
fu is the fraction unbound in human plasma, from 0 to 1.
Clint is human hepatic intrinsic clearance in µL/min per million cells; 0 means that no clearance was seen.
Cells with "–" have no entry in this list.

| compound | MP (°C) | boiling point (°C) | logP | log S (log10 mol/L) | log VP (log10 mmHg) | log Henry constant (log10 atm·m3/mol) | fraction unbound | intrinsic clearance (µL/min/10^6 cells) |
|---|---|---|---|---|---|---|---|---|
| O=C=NC[C@H]1CC[C@H](CN=C=O)CC1 | 0.745 | 255 | – | – | – | – | – | – |
| FC(F)=C(F)OC(F)(F)C(F)(F)C(F)(F)F | – | – | 4 | -5.17 | 2.615 | – | – | – |
| CCCCCCCCCCCCCCCCCCN(C)C | – | – | – | -4.628 | -5.023 | – | – | – |
| CCCCCC(=O)OC(=O)CCCCC | – | – | 4.45 | -4.297 | – | – | – | – |
| [Cl-].c1ccc(C[n+]2cccc3ccccc32)cc1 | – | – | – | – | – | – | 0.599 | 7.31 |
| Clc1ccccc1-c1c(Cl)cc(Cl)c(Cl)c1Cl | 100 | – | – | – | -3.914 | – | – | – |
| CCCCOCCOCCOCOCCOCCOCCCC | -34.65 | 285.2 | – | – | -6.135 | – | – | – |
| O=C(Nc1cccc([N+](=O)[O-])c1)c1cc2ccccc2cc1O | – | – | 4.3 | -6.644 | – | – | – | – |
| CC(C)OC(=O)N[C@H](C(=O)N[C@H](C)c1nc2ccc(F)cc2s1)C(C)C | 160 | – | – | -4.46 | -5.648 | -7.065 | – | – |
| N#Cc1ccc(Nc2nccc(=O)[nH]2)cc1 | 322.8 | – | – | -4.499 | -9.907 | – | – | – |
| Nc1nccnc1C(=O)O | – | – | – | -1.763 | -5.483 | – | – | – |
| C=CC(C)(O)CCCC(C)CCCC(C)CCCC(C)C (stereo not given) | -79 | – | 8.8 | -4.709 | – | – | – | – |
| Clc1ccc(C(Cn2ccnc2)OCc2ccsc2Cl)c(Cl)c1 (stereo not given) | – | – | 4.4 | -4.371 | – | – | – | – |
| CN1CCCCC1CCO (stereo not given) | – | – | 0.72 | – | -1.493 | – | – | – |
| NC(=O)CC1(CC(=O)O)CCCCC1 | – | – | 0.73 | -1.871 | – | – | – | – |
| CNC(=S)NN | – | – | – | – | -6.286 | -11.75 | – | – |
| CCCC(C)C(=O)Nc1ccc(C)c(Cl)c1 (stereo not given) | – | – | – | – | -5.648 | -7.804 | – | – |
| CC1(C)[C@H]2CC=C(CCO)[C@@H]1C2 | – | – | 3.09 | -2.698 | -1.642 | – | – | – |
| COCC(=O)OC(c1ncccc1S(=O)(=O)NC(=O)Nc1nc(OC)cc(OC)n1)C(C)F (stereo not given) | – | – | – | -3.631 | -6.854 | – | – | – |
| CCCCCCCC/C=C\CCCCCCCC(=O)OCCC(C)C | -9 | – | – | -8.07 | – | – | – | – |
| CCCCC(CC)C(=O)OC (stereo not given) | – | – | 3.37 | -2.99 | 0.5 | – | – | – |
| CC(C)(C)C(=O)C(Oc1ccc(Cl)cc1)n1ccnc1 (stereo not given) | – | – | 3.83 | -3.703 | -5.143 | – | – | – |
| Cc1cc(O)c(C(=O)N[C@@H](C(=O)N[C@@H]2C(=O)N3C(C(=O)O)=C(CSc4nnnn4C)CS[C@H]23)c2ccc(O)cc2)cn1 | – | – | -0.9 | -3.962 | – | – | – | – |
| CCCCCCCC(=O)O[C@H]1CO[C@H]2[C@@H]1OC[C@H]2OC(=O)CCCCCCC | – | 260 | – | – | -5.175 | – | – | – |
| C[C@@H]1O[C@@]2(CS1)CN1CCC2CC1 | – | – | 1.3 | -1.918 | – | – | 0.85 | – |
| C=CC(=O)OCC(O)COC(=O)C(C)(CCC)CCCC (stereo not given) | – | – | – | -3.325 | -4.078 | – | – | – |
| CCc1nnc(NS(=O)(=O)c2ccc(N)cc2)s1 | – | – | – | -1.94 | – | – | 0.03 | – |
| CCCCCCCCCCCCCCCCCCP(=O)(O)OC | – | – | 7.7 | -6.2 | – | – | – | – |
| CCCCCCCC/C=C\CCCCCCCC(=O)NCCOCCO | – | – | 6.86 | – | -4.696 | – | – | – |
| CC(=O)c1cccc2ccccc12 | – | – | 2.723 | -3.086 | – | – | – | – |
| CC(C)(C)c1cc(CCC(=O)O)ccc1O | 67.85 | – | 1.04 | -2.198 | -6.046 | – | – | – |
| Cn1nc(-c2cc(OCC(=O)O)c(Cl)cc2F)c(Cl)c1OC(F)F | 126 | – | – | -5.605 | -4.445 | – | – | – |

Excerpt, the opening 3 entries:

| compound | MP (°C) | boiling point (°C) | logP | log S (log10 mol/L) | log VP (log10 mmHg) | log Henry constant (log10 atm·m3/mol) | fraction unbound | intrinsic clearance (µL/min/10^6 cells) |
|---|---|---|---|---|---|---|---|---|
| O=C=NC[C@H]1CC[C@H](CN=C=O)CC1 | 0.745 | 255 | – | – | – | – | – | – |
| FC(F)=C(F)OC(F)(F)C(F)(F)C(F)(F)F | – | – | 4 | -5.17 | 2.615 | – | – | – |
| CCCCCCCCCCCCCCCCCCN(C)C | – | – | – | -4.628 | -5.023 | – | – | – |